In patent US6613534B2, “MAP-2 as a determinant of metastatic potential” (Wake Forest University Health Sciences, priority 2001, dated 2003):

Test system: MAP-2c protein in SK-MEL-19 cells
Test: Western blot (mAb HM-2) of MAP-2 protein in SK-MEL-19 cells
Conditions: 5 day HMBA treatment

`CC(=O)NCCCCCCNC(C)=O` [HMBA, hexamethylene bisacetamide] was tested. Which “amount of MAP-2c protein” value did it give?
The value was “an increase in the amount of MAP-2c protein was apparent”.
